Laboratory results as given in PubChem BioAssay AID492947 (National Center for Advancing Translational Sciences (NCATS), 2010).
“And” between values parts separate entries of the source, which are not always exact repeats. Equal entries are not always repeated. Only a part is listed here, and it is no random draw. The source made the active and inactive calls. The call rests on the fitted dose curve; in most records, active means well fitted activation curve with a large enough effect; inconclusive means small, poorly fitted or top-dose-only effect; inactive means flat fitted curve, though single readings scatter.
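Further: 0% = DMSO controls and full agonism = EC100 isoproterenol or metaproterenol; nearly all actives have a fitted effect of over 65% in size.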

What follows are compounds tested against Beta-2 adrenergic receptor (Homo sapiens) (UniProt P07550) (assay: qHTS assay of beta-arrestin-biased ligands of beta2-adrenergic receptor). Conditions: beta-arrestin recruitment to beta2AR, cell-based reporter; at 46.1 µM (top of the series).
From the text: NIH Molecular Libraries Probe Production Network [MLPCN]
NIH Chemical Genomics Center [NCGC]
PI: Bryan Roth and Bob Lefkowitz
The concept of biased agonism is an emerging concept of molecular pharmacology which proposes that seven transmembrane receptors (7TMRs) or G protein-coupled receptors (GPCRs), exist in multiple signaling conformations and complexes and that ligands (either agonists or antagonists) can induce signaling biased responses for distinct signal transduction cascades.
Furthermore, accumulating evidence over the last decade has drawn attention to a novel function of beta-arrestins as signal transducers that scaffold various signaling molecules upon activation of 7TMRs. […] This beta-arrestin-biased signaling presumably leads to distinct physiological outcomes from those by G protein activation.
Additionally, the active receptor conformations which […] on this beta-arrestin signaling are likely different from those activating G protein signaling
The goal of this screening project will be to discover and optimize novel beta-arrestin-biased ligands for beta2-AR signaling. A luminescent cell-based assay for beta2-AR-mediated agonism, known as the Tango assay, has been validated in which ligand binding of a recombinant beta2-AR and subsequent recruitment of a recombinant beta-arrestin lead to the release of the transcriptional activator tTA, which upregulates transcription of a tTA-responsive luciferase gene. […] Compounds were screened as a concentration-titration series that ranged from 46 microM to 0.6 nM.
NCGC Assay Protocol Summary:
Tango cells were dispensed into white, solid, tissue-culture-treated 1536-well plates at 1500 cells/well in DMEM, containing 1% fetal bovine serum (FBS). Then, 23 nL of compounds or DMSO were delivered to each well using a pin tool. Plates were incubated at 37 degrees C, 5% CO2 for 18 hr. Then 2.5 uL luminescent substrate mix (in-house prepared: 150 mM Tris-Cl, pH 7.6, 3 mM MgCl2, 1% Triton X-100, 5 mM DTT, 0.5 mM CoA, 0.15 mM ATP, 0.44 mM D-luciferin, final concentrations) was added to each well. Plates were then incubated for 15 minutes at room temperature, and subsequently measured on a ViewLux plate reader for luminescent signal using a clear filter with a 10 second exposure and 2x binning. The %Activity was determined from the corrected luminescence values.
Concentration-response curves were fitted to the signals arising from the resulting luminescence. The concentration-effect curves were then classified based on curve quality (r2), response magnitude and degree of measured activity, and compounds were subsequently categorized based on their curve class.
Keywords: biased agonism, beta2-AR, beta-arrestin, GPCR, 7TMR, Tango, luminescence, MLSMR, MLPCN, NIH Roadmap, qHTS, NCGC
`COc1cc(C(=O)NCC2(N3CCOCC3)CCCCC2)ccc1OCC(C)C` was tested, and the activation was inactive: -0.0029%.
`C[As](=O)(O)c1cccc(C(=O)O)c1` was tested, and the activation was inactive: 0.494%.
`O=[As](O)(c1ccc(O)cc1)c1ccccc1O` was tested, and the activation was inactive: -0.445%.
In the case of `O=[N+]([O-])c1cc([N+](=O)[O-])c(-c2ccn[nH]2)s1`, the activation is reported as inactive: 0.446%.
With `CC(C)NC(=O)NP(=O)(Oc1ccccc1)Oc1ccccc1` the activation was inactive: -0.228%.
For `CCN(CC)C(=S)SC(NC=O)C(Cl)(Cl)Cl` (stereo not drawn), the activation was inactive: 0.202%.
`CC(C)c1ccc(OP(=O)(Nc2ccccn2)Oc2ccccc2F)cc1` (stereo not drawn) was tested, and the activation was inactive: 0.0369%.
`ClCCSc1nnc(-c2cccnc2)o1` was tested, and the activation was inactive: 2.74%.
In the case of `Cc1ccc(NP(=O)(Oc2ccccc2F)Oc2ccccc2F)nc1`, the activation is reported as inactive: -0.385%.
With `Cc1cc(SC(NC(=O)c2ccc(F)cc2)C(Cl)(Cl)Cl)ncn1` (stereo not drawn) the activation was inactive: -0.614%.
`CCOP(=O)(Nc1ccccc1)OCC` was tested, and the activation was inactive: -0.229% and inactive: -0.0296%.
For `CC(=O)Nc1ccc([As](=O)(O)O)cc1`, the activation was inactive: -0.972%.
In the case of `O=C(O)c1ccccc1[As](=O)(O)O`, the activation is reported as inactive: -0.788%.
`O=P(Nc1nc2ccc(Cl)cc2s1)(c1ccccc1)c1ccccc1` was tested, and the activation was inactive: 0.23%.
For `CCN(N=Nc1nonc1N)c1nonc1N`, the activation was inactive: -0.286%.
For `Nc1cccc2ccc([As](=O)(O)O)cc12`, the activation was inactive: -0.691%.
With `O=[N+]([O-])c1cc([N+](=O)[O-])c(CCN2CCOCC2)c([N+](=O)[O-])c1` the activation was inactive: 0.516%.
`Cc1ccc(OP(=O)(Nc2nccs2)Oc2ccc(C)cc2)cc1` was tested, and the activation was inactive: 0.0086%.
For `COc1ccccc1OP(=O)(Nc1ccc(C)cn1)Oc1ccccc1OC`, the activation was inactive: 0.247%.
In the case of `CN1CCCC(OC(=O)C(c2ccccc2)c2ccccc2)C1` (stereo not drawn), the activation is reported as inactive: -0.355%.
With `Clc1ccc(Cl)c(NC2=NCC(CBr)S2)c1` (stereo not drawn) the activation was inactive: -0.163%.
For `NC(=O)c1cc([N+](=O)[O-])cc([N+](=O)[O-])c1N`, the activation was inactive: 0.24%.
For `Cc1ccc(N/C(=N/P(=O)(N2CCOCC2)N2CCOCC2)N2CCOCC2)cc1`, the activation was inactive: 4.55%.
`CN(C(=O)Cc1ccc(Cl)c(Cl)c1)[C@H]1CCCC[C@H]1N1CCCC1` was tested, and the activation was inactive: -0.155%.
For `Nc1cc(N)c2nonc2c1[N+](=O)[O-]`, the activation was inactive: 0.476%.
With `CC(C)CC(=O)NC(Sc1ccc(Cl)cc1)C(Cl)(Cl)Cl` (stereo not drawn) the activation was inactive: 0.095%.
For `O=C(NC(Sc1ccncn1)C(Cl)(Cl)Cl)c1ccccc1` (stereo not drawn), the activation was inactive: 0.0679%.
For `Cc1c2non([O-])c-2c(C)[n+](=O)[n+]1[O-]`, the activation was inactive: 0.218%.
In the case of `Oc1ccccc1CNc1ccccn1`, the activation is reported as inactive: -0.226%.
For `CC(=O)N1C2C3N(C(C)=O)C1C1N(C(C)=O)C(C(N1C(C)=O)N3C(C)=O)N2C(C)=O`, the activation was inactive: 0.192%.
For `O=[N+]([O-])c1cccc2n[nH]nc12`, the activation was inactive: -0.0189%.
For `O=[N+]([O-])c1cc([N+](=O)[O-])c(CCNc2ccccc2)c([N+](=O)[O-])c1`, the activation was inactive: 0.0379%.
In the case of `CCc1nc2c(n1)c1c(non1O)c1c2no[n+]1[O-]`, the activation is reported as inactive: -0.698%.
`Cc1ccc(NP(=O)(Oc2ccccc2)Oc2ccccc2)nc1` was tested, and the activation was inactive: 0.329%.
With `COc1ccc(C2=NCC(CBr)S2)cc1` (stereo not drawn) the activation was inactive: 0.44%.
With `CN(C)C(=O)OCCc1n(C)cc[n+]1C` the activation was inactive: -0.489%.
For `CC(C)=N/N=C(\N)N[N+](=O)[O-]`, the activation was inactive: -0.51%.
`CC1CCN(C(=O)Oc2c(Cl)cc(Cl)c3cccnc23)CC1` was tested, and the activation was inactive: 0.528%.
With `C[N+]1=C2C=CC=CC=C2SC12C([N+](=O)[O-])=CC([N+](=O)[O-])=C[C-]2[N+](=O)[O-]` (stereo not drawn) the activation was inactive: 0.368%.
For `Nc1ccc([As](=O)(O)c2ccc(N)cc2)cc1`, the activation was inactive: -0.83%.
In the case of `CCN(/C(=N/P(=O)(N1CCOCC1)N1CCOCC1)N1CCOCC1)c1ccc(OC)cc1`, the activation is reported as inactive: 0.156%.
For `O=C(Nc1cc([As](=O)(O)O)ccc1O)c1ccccc1`, the activation was inactive: -0.0059%.
With `O=[N+]([O-])c1cccc(NC2=NCC(CBr)S2)c1` (stereo not drawn) the activation was inactive: -0.0506%.
For `O=C(O)CNc1ccc([As](=O)(O)O)cc1`, the activation was inactive: 0.172%.
In the case of `CC(C)(C)C(=O)NC(Sc1ccncn1)C(Cl)(Cl)Cl` (stereo not drawn), the activation is reported as inactive: -0.663%.
In the case of `O=[N+]([O-])c1ncn(CCn2ncnc2[N+](=O)[O-])n1`, the activation is reported as inactive: -0.719%.
With `C[C@H]1OP(=O)(Oc2ccccc2)[C@H](O)[C@H](O)[C@H]1N=[N+]=[N-]` (stereo partly drawn) the activation was inactive: -0.471%.
In the case of `O=P(Nc1nc2ccccc2s1)(c1ccccc1)c1ccccc1`, the activation is reported as inactive: -1.1%.
For `CN(C)C1(CNC(=O)c2ccc(Cl)c(S(N)(=O)=O)c2)CCCCC1`, the activation was inactive: 0.504%.
For `O=P(Nc1ccccn1)(c1ccc(Br)cc1)c1ccc(Br)cc1`, the activation was inactive: -0.208%.
`C(Cc1nn[nH]n1)Cc1nn[nH]n1` was tested, and the activation was inactive: -1.56%.
With `Nc1ccc([As](=O)(O)c2ccc([N+](=O)[O-])cc2)cc1` the activation was inactive: -0.853%.
For `O=C(OC1CN2CCC1CC2)c1cccc(Cl)c1` (stereo not drawn), the activation was inactive: 0.344%.
With `O=[N+]([O-])c1ncn(CCn2cnc([N+](=O)[O-])n2)n1` the activation was inactive: -0.982%.
For `CC(=O)NC(SC(=S)N(C)C)C(Cl)(Cl)Cl` (stereo not drawn), the activation was inactive: 12.6%.
For `O=[N+]([O-])c1ccc(O)c(/C=N/Nc2ccc([N+](=O)[O-])cc2[N+](=O)[O-])c1`, the activation was inactive: -0.169%.
`O=[As](O)(c1ccccc1)c1ccc(O)cc1` was tested, and the activation was inactive: 0.0373%.
For `c1nnnn1CCn1cnnn1`, the activation was inactive: -0.13%.
For `O=P(Nc1nccs1)(c1ccccc1)c1ccccc1`, the activation was inactive: 0.171%.
`CC(C)C(=O)NC(Sc1ccccc1)C(Cl)(Cl)Cl` (stereo not drawn) was tested, and the activation was inactive: -0.286%.
For `CC(C)(C)C(=O)NC(Sc1ccccc1)C(Cl)(Cl)Cl` (stereo not drawn), the activation was inactive: -0.38%.
`CCOc1ccc(C2=NCC(CBr)S2)cc1` (stereo not drawn) was tested, and the activation was inactive: 5.69%.
With `O=P1(Nc2nc3ccc(Cl)cc3s2)COc2ccccc2O1` (stereo not drawn) the activation was inactive: 0.286%.
With `CC(=O)Nc1ccc(Oc2c([N+](=O)[O-])cc([N+](=O)[O-])cc2[N+](=O)[O-])cc1` the activation was inactive: 0.187%.
With `CC(=O)Nc1ccc([As](=O)(O)O)c(O)c1` the activation was inactive: -0.0141%.
In the case of `CC(=O)c1ccc(N2CC2c2ccncc2)cc1` (stereo not drawn), the activation is reported as inactive: -0.178%.
`C[C@H]1OP(=O)(Oc2ccccc2)C[C@@H]2O[C@@H]21` (stereo partly drawn) was tested, and the activation was inactive: -0.268%.
For `C[C@@H]1C=CCP(=O)(Oc2ccccc2)O1` (stereo partly drawn), the activation was inactive: -1.05%.
With `Cc1ccccc1CN(C)C(=O)COC(=O)C(O)(c1ccccc1)c1ccccc1` the activation was inactive: 0.272%.
For `O=C(NC1CCS(=O)(=O)C1)NP(=S)(Oc1ccccc1)Oc1ccccc1` (stereo not drawn), the activation was inactive: 0.544%.
With `CCNC(=S)/N=C(\N)N[N+](=O)[O-]` the activation was inactive: 0.307%.
In the case of `CCOC(=O)NC(Sc1ccccc1)C(Cl)(Cl)Cl` (stereo not drawn), the activation is reported as inactive: 0.0328%.
In the case of `Cc1ccc(NP(=O)(Oc2cccc(C)c2)Oc2cccc(C)c2)nc1`, the activation is reported as inactive: -0.226%.
For `c1ccc(-c2nn[nH]n2)c(-c2nn[nH]n2)c1`, the activation was inactive: 10.9%.
In the case of `O=c1c2cc([N+](=O)[O-])ccc2[nH]c2c([N+](=O)[O-])cc([N+](=O)[O-])cc12`, the activation is reported as inactive: 0.165%.
`CN(C)C(=O)Oc1noc2ccccc12` was tested, and the activation was inactive: -0.421%.
For `CC(NC(=O)COC(=O)C(O)(c1ccccc1)c1ccccc1)c1ccccc1` (stereo not drawn), the activation was inactive: 0.226%.
`Cc1ccccc1OP(=O)(Nc1ccccn1)Oc1ccccc1C` was tested, and the activation was inactive: -0.264%.
With `Cc1ccc(OP(=O)(Nc2ccccn2)Oc2ccc(C)cc2)cc1` the activation was inactive: 3.6%.
With `CC(=O)NC(SC(=S)N(CC(C)C)CC(C)C)C(Cl)(Cl)Cl` (stereo not drawn) the activation was inactive: -0.773%.
With `COC(=O)c1cc2c(s1)N=C(c1ccccc1)N(C)P2(=O)N1CCOCC1` (stereo not drawn) the activation was inactive: 0.147%.
With `CCC(=O)N1C2C3N(C(=O)CC)C1C1N(C(=O)CC)C(C(N1C(=O)CC)N3C(=O)CC)N2C(=O)CC` the activation was inactive: 0.05%.
With `O=C(OC1CN2CCC1CC2)c1ccccc1` (stereo not drawn) the activation was inactive: 0.0537%.
